Experimental findings from patent publication US7816350B2, “Substituted [1,2,3] triazolo[4,5-D]pyrimidines as cdk inhibitors” (Institute of Experimental Botany ASCR, priority 2002, dated 2010) are described below.

Protein sequences, listed by entry. Tags and fused reporters are not part of them.
UniProt P06493, whole entry: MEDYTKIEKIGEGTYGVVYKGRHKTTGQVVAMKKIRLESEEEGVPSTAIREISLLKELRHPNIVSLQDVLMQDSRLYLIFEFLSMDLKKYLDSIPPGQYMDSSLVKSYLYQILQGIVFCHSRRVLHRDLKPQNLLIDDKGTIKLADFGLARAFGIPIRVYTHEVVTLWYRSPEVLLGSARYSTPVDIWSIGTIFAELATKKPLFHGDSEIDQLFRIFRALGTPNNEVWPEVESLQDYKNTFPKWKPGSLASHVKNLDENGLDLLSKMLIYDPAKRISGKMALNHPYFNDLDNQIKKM
UniProt P14635, whole entry partner: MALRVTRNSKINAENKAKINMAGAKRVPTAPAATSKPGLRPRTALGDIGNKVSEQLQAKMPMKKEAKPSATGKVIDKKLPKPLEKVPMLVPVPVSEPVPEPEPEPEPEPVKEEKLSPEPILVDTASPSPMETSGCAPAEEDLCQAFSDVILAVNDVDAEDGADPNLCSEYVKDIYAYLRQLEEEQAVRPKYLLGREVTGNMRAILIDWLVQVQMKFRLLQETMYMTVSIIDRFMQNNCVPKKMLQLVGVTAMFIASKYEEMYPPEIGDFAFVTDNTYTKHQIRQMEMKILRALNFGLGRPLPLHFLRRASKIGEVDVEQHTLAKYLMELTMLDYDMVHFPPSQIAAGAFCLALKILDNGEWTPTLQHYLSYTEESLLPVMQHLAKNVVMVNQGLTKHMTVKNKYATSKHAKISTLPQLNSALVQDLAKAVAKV

The structures appear in SMILES notation. Bounds are passed on as bounds.

Experiment [1] has as its target p34^cdc2/cyclin B (CDC2) (Homo sapiens, UniProt P06493). As to the kind of experiment: CDK inhibition assay, p34cdc2/cyclin B kinase, histone H1 phosphorylation. The note with it: read-out: CDC2 IC50. As to the method: Cyclin-dependent kinases (p34^cdc2, p33^cdk2) and cyclins (cyclin B, E) are produced in Sf9 insect cells coinfected with appropriate baculoviral constructs. The cells are harvested 68-72 hrs post infection in lysis buffer for 30 min on ice and the soluble fraction is recovered by centrifugation at 14.000 g for 10 min. The protein extract is stored at −80° C.
Lysis buffer: 50 mM Tris pH 7.4, 150 mM NaCl, 5 mM EDTA, 20 mM NaF, 1% Tween, 1 mM DTT, 0.1 mM PMSF, leupeptine, aprotonine.
To carry out experiments on kinetics under linear conditions, the final point test system for kinase activity measurement is used. The kinase is added to reaction mixture in such a way as to obtain linear activity with respect to the concentration of enzyme and with respect to time.
The p34^cdc2 and p33^cdk2 kinase inhibition determination involves the use of 1 mg/ml histone H1 (Sigma, type III-S) in the presence of 15 μM [γ-^32P]ATP ([…]) (Amersham) in a final volume of 20 μl. Kinase activity is determined at 30° C. in the kinase buffer.
Tested compounds are usually dissolved to 100 mM solutions in DMSO, final concentration of DMSO in reaction mixture never exceeds 1%. The controls contain suitable dilutions of DMSO.
After 10 min, addition 3×SDS sample buffer stops the incubations. Phosphorylated proteins are separated electrophoretically using 12.5% SDS polyacrylamide gel. The measurement of kinase activity is done using digital image analysis.
The kinase activity is expressed as a percentage of maximum activity, the apparent inhibition constants are determined by graphic analysis (FIG. 1).
Kinase buffer: 50 mM Hepes pH 7.4, 10 mM MgCl2, 5 mM EGTA, 10 mM 2-glycerolphosphate, 1 mM NaF, 1 mM DTT

For experiment [2], the target named is IκB-α kinase. Description: IκB-α kinase inhibitory activity, in vitro kinase assay. The format is biochemical. The note with it: read-out: IκB-α IC50.

What is called IC50 is the concentration at which inhibition is half-maximal. In the case of `CC[C@H](CO)Nc1nc(NCc2ccc(Cl)c(O)c2O)c2nnn(C(C)C)c2n1`, the concentration for half-maximal inhibition (IC50) in experiment [1] is 11 µM; in experiment [2], > 100 µM. In the case of `COc1ccc(CNc2nc(N[C@@H](CO)C(C)C)nc3c2nnn3C(C)C)c(O)c1O`, the IC50 in experiment [1] came out at 10 µM. Regarding `Cn1nnc2c(NCc3cc(O)c(Cl)cc3O)nc(NCCO)nc21`, the IC50 in experiment [1] was 31 µM; in experiment [2], 75 µM. On the same counts, the results for `Cn1nnc2c(NCc3ccc(Cl)c(O)c3O)nc(NCCO)nc21` are 18 µM and 80 µM.

Take `COc1ccc(CNc2nc(NCCO)nc3c2nnn3C)c(O)c1O`: the concentration for half-maximal inhibition (IC50) was 20 µM in experiment [1] and 90 µM in experiment [2].

On to `COc1cc(O)c(CNc2nc(N[C@@H](CO)C(C)C)nc3c2nnn3C(C)C)cc1O`, for which the values for the half-maximal inhibitory concentration (IC50) in experiment [1] and in experiment [2] were 12 µM and > 100 µM, respectively.
